The test system of the assay is 4T1 cells. Kind of assay: Survival assay (methylene blue) of irradiated 4T1 cells. The format is cell-based, mouse. The conditions noted are these: drugs with RT, beginning 2 days prior to RT until 6 days post-RT. The method, then: Irradiation of parental cells: Cells were treated by single radiation with 5, 10, and 15 Gy doses of γ-rays of ^60Co by a radiotherapy unit (gamma cell 220) at a dose rate of 1.5 Gy/min.
4T1, MDA-MB-231, MDA-MB-468 and Br45 cells were trypsinized and plated to reach optimal confluences next day by (70-80) % before irradiation treatment. The next day, 4T1 cells were irradiated using (5 and 15) Gy of γ-rays. Radiation doses were selected based on calibration experiments in which the survival rates after irradiation ranged from 40-50% of the cells. MDA-MB-231 and BR45 cells were treated with 10 Gy with the exception of MDA-MB-468 cells which were treated with 5 Gy. Afterwards, cells were grown under normal conditions for 24 h, 48 h and 6 days. At each indicated timepoint, cells were detached from the flask using Acutase and fixed using 2% paraformaldehyde for 30 min in ice. Labelling procedure of each condition performed on the day of the flow cytometry analysis as mentioned below.
Survival Analysis: Cells were seeded at 70% confluency and treated as needed for different timepoints. Cells were washed with PBS and fixed with 4% PFA for 10 min. at R.T. The fixed cells were stained with Methylene Blue (MB) for 1 hour at R.T., washed and air dried overnight. The color was extracted with 0.1M HCl for 1 hour at R.T. Absorbance was read at 630 nm.

Take trastuzumab [Herceptin]: the “cell survival / sensitization of 4T1 cells to RT” value is on record as “significantly less effective in sensitizing the cells to RT”.
